Experimental findings from ChEMBL document CHEMBL5537125, “Discovery of C-3 isoxazole substituted thiochromone S,S-dioxide derivatives as potent and selective inhibitors for monoamine oxidase B (MAO-B)” (Eur J Med Chem, 2024) are described below.

Molecules are shown by their SMILES. A value given as a limit tells only on which side of the number the result lay.

The species entered for this assay is Homo sapiens. Briefly: Selectivity index, ratio of IC50 for human recombinant MAO-A to IC50 for human recombinant MAO-B.

As for `O=C1C(c2cc(-c3ccc(C(F)(F)F)cc3)no2)=CS(=O)(=O)c2ccccc21`, the Ratio IC50 is greater than 315.

Regarding `COc1cccc(-c2cc(C3=CS(=O)(=O)c4ccccc4C3=O)on2)c1`, the Ratio IC50 is greater than 1960.

`COc1ccc(-c2cc(C3=CS(=O)(=O)c4ccccc4C3=O)on2)cc1`: the Ratio IC50 was greater than 10000.

With `O=C1C(c2cc(-c3cccc(C(F)(F)F)c3)no2)=CS(=O)(=O)c2ccccc21`, the Ratio IC50 was greater than 5240.

Regarding `O=C1C(c2cc(-c3ccccc3C(F)(F)F)no2)=CS(=O)(=O)c2ccccc21`, the Ratio IC50 was greater than 4330.

`O=C1C(c2cc(-c3ccc(Cl)cc3)no2)=CS(=O)(=O)c2ccccc21`: the Ratio IC50 was greater than 10000.

On to `O=c1c(-c2cc(-c3ccccc3C(F)(F)F)no2)csc2ccccc12`, for which the Ratio IC50 was greater than 10000.
